# Earlier results as cited in patent US20240239781A1, “1H-PYRAZOLE DERIVATIVES AS SIGMA LIGANDS” (ACONDICIONAMIENTO TARRASENSE, priority 2021, published 2024).
# Sequences of proteins named here, by UniProt entry; tags and fusion partners are left off.
# UniProt Q99720, whole entry: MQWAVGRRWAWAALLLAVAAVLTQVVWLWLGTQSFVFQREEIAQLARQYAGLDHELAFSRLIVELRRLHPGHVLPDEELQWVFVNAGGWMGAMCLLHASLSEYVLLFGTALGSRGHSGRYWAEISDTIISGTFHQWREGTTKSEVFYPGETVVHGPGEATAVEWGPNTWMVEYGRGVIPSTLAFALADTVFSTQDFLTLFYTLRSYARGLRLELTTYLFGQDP
# Target: sigma-1 (σ1) site (Homo sapiens, UniProt Q99720)
# Conditions: background statement; cited from earlier work
substance,measurement,value
(+)-SKF-10047,affinity for the sigma-1 (σ1) site,nanomolar affinity
